Results on 32 compounds are retold here after US6555714B1, “Inhibitors of hydroxyphenylpyruvate dioxygenase and an assay for identification of inhibitors” (Hoechst Aktiengesellschaft, priority 1993, dated 2003).

By UniProt entry, the sequences of proteins in these tests, tags left out. Residues count along the entry.
UniProt A0A1D6H1G0, 1-444: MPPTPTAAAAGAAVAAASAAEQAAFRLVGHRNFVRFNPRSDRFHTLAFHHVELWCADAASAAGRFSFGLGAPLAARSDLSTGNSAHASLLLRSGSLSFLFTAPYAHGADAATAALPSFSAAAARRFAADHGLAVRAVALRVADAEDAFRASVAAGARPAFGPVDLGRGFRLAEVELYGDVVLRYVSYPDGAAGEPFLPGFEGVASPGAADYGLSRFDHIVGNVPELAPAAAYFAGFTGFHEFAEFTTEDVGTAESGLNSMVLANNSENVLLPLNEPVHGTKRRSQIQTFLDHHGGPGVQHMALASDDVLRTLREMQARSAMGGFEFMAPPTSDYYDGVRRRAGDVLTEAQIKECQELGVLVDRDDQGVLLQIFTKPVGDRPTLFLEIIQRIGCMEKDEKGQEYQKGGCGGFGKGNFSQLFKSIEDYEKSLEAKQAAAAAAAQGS

In assay [1] the target is anabolic plant HPPD (p-hydroxyphenylpyruvate dioxygenase) from maize (Zea mays, UniProt A0A1D6H1G0).
The test system of another assay is Lemna gibba. In words: Growth inhibition of Lemna. On the procedure:
The IC50 value is the molar concentration of the inhibitor at which 50% of the enzyme activity are inhibited. The growth of Lemna was measured as described in: Schulz, A., Ort, O., Beyer, P. and Kleinig, H.; SC-0051, a 2-benzoylcyclohexane-1,3-dione bleaching herbicide, is a potent inhibitor of the enzyme p-hydroxyphenylpyruvate dioxygenase. FEBS-Letters, 1993, 318 (2), 162-166.

[2] abbreviates: Table 1 of compounds of formula (I), HPPD inhibition, IC50 is a molar concentration.

Where two headings read alike, the source gives them in different places.

Consider `CS(=O)(=O)c1ccc(C(=O)c2ccc(Cl)cc2Cl)c(Cl)c1`, for which the concentration for half-maximal inhibition (IC50) in assay [1] (setting [2]) is less than 10000 nM; in assay [1] (read-out: IC50 value, p-hydroxyphenylpyruvate dioxygenase inhibition, Example 6 table), more than 10000 nM. Also, the “Growth inhibition of Lemna (%)” value with Lemna gibba (10^−4 M) amounted to 28%; in the assay with Lemna gibba (10^−5 M) it was 12%.

In assay [1] (setting [2]), `COc1cc(OC)c(C(=O)c2ccc(Cl)c(Cl)c2O)cc1OC` returned an IC50 of less than 1 nM.

For `Cc1c(Cl)ccc(C(=O)c2ccc(S(C)(=O)=O)cc2Cl)c1Cl`, the IC50 in assay [1] (setting [2]) amounted to 400 nM.

With `O=C(c1ccc([N+](=O)[O-])cc1Cl)c1ccc(Cl)c(Cl)c1O`, the half-maximal inhibitory concentration (IC50) in assay [1] (setting [2]) is less than 1 nM. Still for that read-out and setting: the value for `Cc1cc(C(=O)c2ccc(S(C)(=O)=O)cc2Cl)c(Cl)cc1O` was 920 nM. With `Cc1cc(C)c(C(=O)c2ccc(S(C)(=O)=O)cc2Cl)c(O)c1`, the half-inhibitory concentration (IC50) in assay [1] (setting [2]) turned out to be 230 nM. Also, the “Growth inhibition of Lemna (%)” value with Lemna gibba (10^−4 M) came out at 80%; with Lemna gibba (10^−5 M) it was 72%; in the assay with Lemna gibba (10^−6 M), 12%. As for `CS(=O)(=O)c1ccc(C(=O)c2c(O)c(Cl)cc(Cl)c2Cl)c(Cl)c1`, the IC50 in assay [1] (setting [2]) came to 120 nM. The same measure, in the same setting: for `CS(=O)(=O)c1ccc(C(=O)c2ccc(C(F)(F)F)cc2[N+](=O)[O-])c(Cl)c1` the value was 4 nM; for `CCCc1ccc(C(=O)c2ccc(Cl)c(Cl)c2O)cc1`, 50 nM; for `CS(=O)(=O)c1ccc(C(=O)c2ccc(F)cc2O)c(Cl)c1`, less than 10 nM. Still for that read-out and setting: for `O=C(c1cc(O)ccc1O)c1ccc(Cl)cc1Cl` the value was less than 1 nM.

The compound `COc1ccc(OC)c(C(=O)c2ccc(Cl)cc2Cl)c1` had an IC50 in assay [1] (setting [2]) of 970 nM. Same read-out and setting: for `COc1ccc(OC)c(C(=O)c2ccc(S(C)(=O)=O)cc2Cl)c1` the value was 240 nM; for `CS(=O)(=O)c1ccc(C(=O)c2ccc(F)c(F)c2O)c(Cl)c1`, less than 10 nM; for `COc1cc(OC)c(C(=O)c2ccc(S(C)(=O)=O)cc2Cl)c(OC)c1`, 5700 nM. In assay [1] (setting [2]), `CS(=O)(=O)c1ccc(C(=O)c2ccc(O)c(F)c2F)c(Cl)c1` returned an IC50 of less than 1 nM. In assay [1] (setting [2]), `CS(=O)(=O)c1ccc(C(=O)c2ccc(O)cc2)c(Cl)c1` registered an IC50 of 12 nM. Still for that read-out and setting: the value for `Cc1ccc(C(=O)c2ccc(Cl)c(Cl)c2O)cc1` was 3500 nM; that for `COc1cc(OC)c(C(=O)c2ccc(Cl)cc2Cl)c(OC)c1` was 3500 nM. As to `Cc1cc(O)c(C(=O)c2ccc(S(C)(=O)=O)cc2Cl)c(O)c1`, in assay [1] (setting [2]), the IC50 came out at 180 nM. Same read-out and setting: the value for `CS(=O)(=O)c1ccc(C(=O)c2cc(N)ccc2O)c(Cl)c1` was 40 nM; that for `CS(=O)(=O)c1ccc(C(=O)c2ccccc2O)c(Cl)c1` was less than 1 nM. Still for that read-out and setting: for `CS(=O)(=O)c1ccc(C(=O)c2ccc(Cl)cc2O)c(Cl)c1` the value was less than 1 nM. Regarding `CS(=O)(=O)c1ccc(C(=O)c2cc(Cl)cc(Cl)c2O)c(Cl)c1`, in assay [1] (setting [2]), the IC50 worked out at 1 nM.

`CC(=O)Nc1ccc(O)c(C(=O)c2ccc(S(C)(=O)=O)cc2Cl)c1` registered a half-inhibitory concentration (IC50) in assay [1] (setting [2]) of 9 nM. `CS(=O)(=O)c1ccc(C(=O)c2ccc(O)cc2F)c(Cl)c1`: in assay [1] (setting [2]), the half-maximal inhibitory concentration (IC50) was found to be 20 nM.

In assay [1] (setting [2]), `Cc1ccc(O)c(C(=O)c2ccc(S(C)(=O)=O)cc2Cl)c1` showed a half-maximal inhibitory concentration (IC50) of less than 1 nM.

`CS(=O)(=O)c1ccc(C(=O)c2ccc(Cl)c(Cl)c2O)c(Cl)c1`: the concentration for half-maximal inhibition (IC50) in assay [1] (setting [2]) stood at 1.1 nM. On the same count and under the same terms, the value for `CS(=O)(=O)c1ccc(C(=O)c2cc(F)ccc2O)c(Cl)c1` was less than 1 nM. In turn, `CC(=O)Oc1cc(C)cc(C)c1C(=O)c1ccc(S(C)(=O)=O)cc1Cl` gave an IC50 in assay [1] (setting [2]) of 300 nM. In assay [1] (setting [2]), `CS(=O)(=O)c1ccc(C(=O)c2ccc(O)c(Cl)c2Cl)c(Cl)c1` gave a half-maximal inhibitory concentration (IC50) of 12 nM. In assay [1] (setting [2]), `CS(=O)(=O)c1ccc(C(=O)c2c(O)cccc2O)c(Cl)c1` came in with an IC50 of 570 nM.

As usually defined, the IC50 is the point on the concentration scale where inhibition reaches its midpoint.
